Test system: human platelets stimulated by thrombin
Assay: Platelet anti-aggregating activity in vitro
Format: cell-based
Conditions: 10^-5 to 10^-7 molar range, natural product = 1.0

SMILES: O=C(O)Cc1ccccc1Nc1c(Cl)cccc1Cl [DICLOFENAC, reference compound]
- platelet anti-aggregating (II), potency ratio versus natural product: 1.0

From patent US5861426A, “Nitro compounds of the formula A-Xi -NO2 and their compositions having anti-inflammatory, analgesic and anti-thrombotic activities” (Nicox S.A., priority 1994, dated 1999)
